Molecules are shown by their SMILES.

Sequences of proteins named here, by UniProt entry; tags and fusion partners are left off.
UniProt Q15858, whole entry: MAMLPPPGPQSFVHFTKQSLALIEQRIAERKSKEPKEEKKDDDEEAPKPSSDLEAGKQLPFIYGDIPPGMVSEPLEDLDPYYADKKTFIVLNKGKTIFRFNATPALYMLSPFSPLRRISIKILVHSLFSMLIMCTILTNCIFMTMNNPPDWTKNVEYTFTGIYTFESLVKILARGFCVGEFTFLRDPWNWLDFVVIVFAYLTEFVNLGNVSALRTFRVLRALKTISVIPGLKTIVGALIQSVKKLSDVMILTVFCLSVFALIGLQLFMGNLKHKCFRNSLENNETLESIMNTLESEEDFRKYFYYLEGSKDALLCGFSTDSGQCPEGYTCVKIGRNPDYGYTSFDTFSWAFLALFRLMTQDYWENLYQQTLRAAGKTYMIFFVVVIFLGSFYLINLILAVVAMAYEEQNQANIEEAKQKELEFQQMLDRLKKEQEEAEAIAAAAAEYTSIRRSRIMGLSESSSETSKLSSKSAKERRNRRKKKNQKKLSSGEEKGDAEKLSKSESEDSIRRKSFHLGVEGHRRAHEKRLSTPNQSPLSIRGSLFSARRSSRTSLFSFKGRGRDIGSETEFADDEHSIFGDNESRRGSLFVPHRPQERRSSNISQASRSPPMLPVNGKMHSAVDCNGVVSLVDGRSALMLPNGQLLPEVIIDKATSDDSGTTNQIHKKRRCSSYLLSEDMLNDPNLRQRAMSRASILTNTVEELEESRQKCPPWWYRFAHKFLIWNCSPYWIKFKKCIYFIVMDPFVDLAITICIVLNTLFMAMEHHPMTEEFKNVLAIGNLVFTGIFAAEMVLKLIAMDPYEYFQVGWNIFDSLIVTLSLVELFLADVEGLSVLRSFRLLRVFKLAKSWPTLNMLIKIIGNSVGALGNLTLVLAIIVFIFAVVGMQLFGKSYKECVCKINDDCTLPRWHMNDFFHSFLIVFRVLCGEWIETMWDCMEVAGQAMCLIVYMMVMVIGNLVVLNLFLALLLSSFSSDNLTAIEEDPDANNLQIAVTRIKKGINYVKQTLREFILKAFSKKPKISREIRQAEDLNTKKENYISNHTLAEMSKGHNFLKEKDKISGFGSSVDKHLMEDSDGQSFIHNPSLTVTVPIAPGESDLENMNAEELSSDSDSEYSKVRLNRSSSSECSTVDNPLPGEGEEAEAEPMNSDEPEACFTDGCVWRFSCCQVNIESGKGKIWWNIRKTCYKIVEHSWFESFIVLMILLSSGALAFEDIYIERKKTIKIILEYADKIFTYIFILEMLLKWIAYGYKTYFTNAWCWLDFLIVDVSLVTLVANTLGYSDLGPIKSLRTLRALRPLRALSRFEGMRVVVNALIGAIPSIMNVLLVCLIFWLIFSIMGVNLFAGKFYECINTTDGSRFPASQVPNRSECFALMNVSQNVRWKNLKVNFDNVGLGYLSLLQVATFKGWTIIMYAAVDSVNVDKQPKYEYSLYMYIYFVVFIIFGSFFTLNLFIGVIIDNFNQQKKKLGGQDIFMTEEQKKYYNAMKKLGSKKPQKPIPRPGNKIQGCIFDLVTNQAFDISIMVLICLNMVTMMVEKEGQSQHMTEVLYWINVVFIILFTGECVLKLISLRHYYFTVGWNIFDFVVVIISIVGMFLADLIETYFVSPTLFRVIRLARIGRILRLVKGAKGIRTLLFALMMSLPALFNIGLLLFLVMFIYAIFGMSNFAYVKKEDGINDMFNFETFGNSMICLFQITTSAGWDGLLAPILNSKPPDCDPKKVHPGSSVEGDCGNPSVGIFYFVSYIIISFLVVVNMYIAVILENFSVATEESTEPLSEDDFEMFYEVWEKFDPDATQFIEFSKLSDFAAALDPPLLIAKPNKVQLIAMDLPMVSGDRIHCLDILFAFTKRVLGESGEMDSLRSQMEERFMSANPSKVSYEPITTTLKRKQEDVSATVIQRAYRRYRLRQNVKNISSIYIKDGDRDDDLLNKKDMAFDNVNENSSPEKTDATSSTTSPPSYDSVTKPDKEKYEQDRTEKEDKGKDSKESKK

For one test, the target named is Nav 1.7 (Homo sapiens (Human), UniProt Q15858). Nature of the test: in-vitro Nav 1.7 PX (IC50). In kind it is cell-based.
Conditions: not given
A word on the IC50: it is the concentration at which inhibition is half-maximal. A low value points to greater potency in that assay. Regarding `COc1cc(-c2cccc(F)c2)c(Cl)cc1-n1c(=O)ccc2cc(S(=O)(=O)Nc3ccncn3)ccc21` (atropisomer, axis not shown; (P)) [Example 465, (P)-1-(2-chloro-3′-fluoro-5-methoxy-[1,1′-biphenyl]-4-yl)-2-oxo-N-(pyrimidin-4-yl)-1,2-dihydroquinoline-6-sulfonamide], the midpoint of inhibition, the IC50, lay at 0.017 µM.

The test is the same for the next values; noted with them: in-vitro Nav 1.7 PX data.
The compound `COc1nc(-c2ccc(Cl)c(C)c2)c(Cl)cc1-n1c(=O)ccc2cc(S(=O)(=O)Nc3ccon3)ccc21` [Example 1084, 1-(5-chloro-6-(4-chloro-3-methylphenyl)-2-methoxy-3-pyridinyl)-N-3-isoxazolyl-2-oxo-1,2-dihydro-6-quinolinesulfonamide] had an IC50 of 0.019 µM.

In turn, `COc1cc(Cl)cc(-c2ccc(OC)c(-n3c(=O)ccc4cc(S(=O)(=O)Nc5ccon5)ccc43)c2)c1` [Example 862, 1-(3′-chloro-4,5′-dimethoxy-3-biphenylyl)-N-3-isoxazolyl-2-oxo-1,2-dihydro-6-quinolinesulfonamide] registered an IC50 of 0.019 µM.

The compound `COc1ccc(Cl)c(-c2cc(OC)c(-n3c(=O)ccc4cc(S(=O)(=O)Nc5ccon5)ccc43)cc2F)c1` [Example 726, 1-(2′-chloro-2-fluoro-5,5′-dimethoxy-4-biphenylyl)-N-3-isoxazolyl-2-oxo-1,2-dihydro-6-quinolinesulfonamide] gave an IC50 of 0.019 µM. In other words, the double-digit nanomolar range.

With `COc1ccc(-c2cc(F)cc(Cl)c2)cc1-n1c(=O)ccc2cc(S(=O)(=O)Nc3ccon3)ccc21` [Example 849, 1-(3′-chloro-5′-fluoro-4-methoxy-3-biphenylyl)-N-3-isoxazolyl-2-oxo-1,2-dihydro-6-quinolinesulfonamide], it took 0.017 µM to reach half-maximal inhibition (IC50).

In turn, `COc1ccc(C)c(-c2cc(OC)c(-n3c(=O)ccc4cc(S(=O)(=O)Nc5ccon5)ccc43)cc2F)c1` [Example 724, 1-(2-fluoro-5,5′-dimethoxy-2′-methyl-4-biphenylyl)-N-3-isoxazolyl-2-oxo-1,2-dihydro-6-quinolinesulfonamide] came in with a half-inhibitory concentration (IC50) of 0.017 µM.

Turning to `COc1cc(-c2ccc(F)c(C)c2)c(F)cc1-n1c(=O)ccc2cc(S(=O)(=O)Nc3cccnn3)ccc21` [Example 941, 1-(2,4′-difluoro-5-methoxy-3′-methyl-4-biphenylyl)-2-oxo-N-3-pyridazinyl-1,2-dihydro-6-quinolinesulfonamide], the IC50 is 0.017 µM.

Compound `COc1cc(-c2cc(C#N)ccc2C)c(F)cc1-n1c(=O)ccc2cc(S(=O)(=O)Nc3ccon3)ccc21` [Example 717, 1-(5′-cyano-2-fluoro-5-methoxy-2′-methyl-4-biphenylyl)-N-3-isoxazolyl-2-oxo-1,2-dihydro-6-quinolinesulfonamide] showed an IC50 of 0.019 µM.

`COc1cc(-c2ccc(C(F)(F)F)cc2)ccc1-n1c(=O)ccc2cc(S(=O)(=O)Nc3ccon3)ccc21` [Example 1013, N-3-isoxazolyl-1-(3-methoxy-4′-(trifluoromethyl)-4-biphenylyl)-2-oxo-1,2-dihydro-6-quinolinesulfonamide] returned an IC50 of 0.019 µM. In other words, the double-digit nanomolar range.

Take `COc1cc(CC2CCCCC2)c(F)cc1-n1c(=O)ccc2cc(S(=O)(=O)Nc3ccon3)ccc21` [Example 1079, 1-(4-(cyclohexylmethyl)-5-fluoro-2-methoxyphenyl)-N-3-isoxazolyl-2-oxo-1,2-dihydro-6-quinolinesulfonamide]: the IC50 was found to be 0.017 µM.

The test is the same for the next values; noted with them: in-vitro Nav 1.7 PX data (PatchXpress).
`COc1cc(-c2cc(Cl)ccc2C)ccc1-n1c(=O)ccc2cc(S(=O)(=O)Nc3cccnn3)ccc21` [Example 1066, 1-(5′-chloro-3-methoxy-2′-methyl-4-biphenylyl)-2-oxo-N-3-pyridazinyl-1,2-dihydro-6-quinolinesulfonamide] came in with an IC50 of 0.019 µM.

As for `COc1ccc(Cl)cc1-c1ccc(-n2c(=O)ccc3cc(S(=O)(=O)Nc4ccon4)ccc32)c(OC)c1` [Example 1035, 1-(5′-chloro-2′,3-dimethoxy-4-biphenylyl)-N-3-isoxazolyl-2-oxo-1,2-dihydro-6-quinolinesulfonamide], the half-inhibitory concentration (IC50) was found to be 0.019 µM.

`COc1cc(-c2ccc(Cl)cc2F)ccc1-n1c(=O)ccc2cc(S(=O)(=O)Nc3ccon3)ccc21` [Example 1062, 1-(4′-chloro-2′-fluoro-3-methoxy-4-biphenylyl)-N-3-isoxazolyl-2-oxo-1,2-dihydro-6-quinolinesulfonamide] had a concentration for half-maximal inhibition (IC50) of 0.019 µM. This counts as double-digit nanomolar.

The same test, now with this note: in-vitro Nav 1.7 PX data, Table 4.
On to `COc1cc(-c2cc(F)c(F)c(F)c2)c(F)cc1-n1c(=O)ccc2cc(S(=O)(=O)Nc3ccon3)ccc21` (atropisomer, axis not shown; (P)) [Example 1164, (P)—N-3-isoxazolyl-2-oxo-1-(2,3′,4′,5′-tetrafluoro-5-methoxy-4-biphenylyl)-1,2-dihydro-6-quinolinesulfonamide], for which the IC50 turned out to be 0.019 µM. That is a double-digit nanomolar value.

The same test, now with this note: in-vitro PatchXpress (PX).
For the compound `COc1cc(-c2ccc(C)c(F)c2)c(F)cc1-n1c(=O)ccc2cc(S(=O)(=O)Nc3ccon3)ccc21` (atropisomer, axis not shown; (P)) [Example 510, (P)-1-(2,3′-difluoro-5-methoxy-4′-methyl-4-biphenylyl)-N-3-isoxazolyl-2-oxo-1,2-dihydro-6-quinolinesulfonamide], it took 0.017 µM to reach half-maximal inhibition (IC50).

(Values after US9212182B2, “Bicyclic sulfonamide compounds as sodium channel inhibitors” (AMGEN INC., priority 2013, dated 2015).)
